Earlier results on one molecule are cited in patent publication US20240082463A1, “COATED MEDICAL PRODUCT” (HEMOTEQ AG, priority 2020, published 2024).

Where two headings read alike, the source gives them in different places.

The conditions of this series: cited from earlier work.

For `c1ccccc1` [Benzene], the logKOW entry reads like this: (Table 3, rounded orientation values) “approx. 2.1”; (Table 4) 2.1.
